Measurements as given in PubChem BioAssay AID2100 (National Center for Advancing Translational Sciences (NCATS), 2009).
Only a part is listed here, and it is no random draw. Inconclusive results are not listed. Activity calls are given as the source filed them. Calls come from the whole dose curve; as a rule, active = well fitted inhibition curve with a large enough effect; inconclusive = small, poorly fitted or top-dose-only effect, or another doubt; inactive = no such curve, though single readings can be large or run the other way.

Each compound was assayed against Lysosomal alpha-glucosidase (Homo sapiens) (UniProt P10253) (assay: qHTS Assay for Inhibitors and Activators of Human alpha-Glucosidase Cleavage of Glycogen). Details: recombinant GAA, glycogen substrate, Amplex Red glucose oxidase fluorescence; at 76.4 µM (top of the series) unless noted.
Excerpt: NIH Chemical Genomics Center [NCGC] NIH Molecular Libraries Probe Production Centers Network [MLPCN] MLPCN Grant: R03 MH084841-01 Assay Submitter (PI): Wei Zheng NCGC Assay Overview: Alpha-glucosidase is responsible for the hydrolysis of terminal, non-reducing 1,4-linked alpha-D-glucose residues, which releases alpha-D-glucose. It is a lysosomal hydrolase that is required for the degradation of a small percentage (1-3%) of cellular glycogen in humans. Deficiency of this enzyme results in glycogen-storage disease type II (GSDII), also referred to as Pompe disease, an autosomal recessive disorder. Structurally normal glycogen is accumulated in the lysosomes and cytoplasm in affected patients, primarily in muscle tissues. Excessive glycogen storage within lysosomes may interrupt normal functioning of other organelles and leads to cellular injury. In turn, this leads to enlargement and dysfunction of the entire organ involved (eg: cardiomyopathy and muscle weakness). It has been reported that the improper folding and trafficking of alpha-glucosidase resulting from genetic mutations may account for a significant number of Pompe patients. […] We optimized this alpha-glucosidase assay in 1536-well plate format for identification of novel small molecule inhibitors or activators with structures other than the sugar analogs in order to develop new pharmacological chaperones. Previous assays of alpha-Glucosidase have utilized a non-natural fluorescent substrate to probe enzyme activity. The present assay measures enzyme activity on glycogen using a coupled-assay system to glucose oxidase.
NCGC Assay Protocol Summary: This is an enzyme assay using glycogen from bovine liver (Sigma catalog #: G0885) as the substrate and recombinant human alpha-glucosidase as the enzyme preparation. Upon hydrolysis of the substrate, the glucose product can be detected using the Amplex Red Glucose Oxidase Assay Kit (Invitrogen catalog #: A22189). The product of this reaction can be read with a fluorescence plate reader with an excitation at 573 nm and an emission at 610 nm. Data were normalized to the controls for basal activity (without enzyme) and 100% activity (with enzyme). The AC50 values were determined from concentration-response data modeled with the standard Hill equation. Assay buffer for enzyme reaction: 50 mM citric acid (titrated with potassium phosphate to pH 5.0), 0.01% Tween-20 (pH 5.0 is an optimal condition for this enzyme assay) Assay buffer for Amplex Red reaction: Tris-HCl, pH 7.5 1536-well assay protocol for the alpha-glucosidase assay: (1) Add 2 ul/well alpha-glucosidase enzyme solution (4 nM final) (2) Add 23 nL compounds in DMSO solution. The final titration was 0.7 nM to 77 uM. (3) Add 1 ul of glycogen substrate solution (30 ug) (4) Incubate at 37 C for 40 min (5) Add 2 ul tris-HCl buffer with Amplex Red reagents (6) Incubate 45 min at room temperature. (7) Detect the assay plate in a ViewLux plate reader (PerkinElmer) with Ex=573 nm and Em=610nm. Keywords: Alpha-glucosidase, Pompe Disease, pharmacological chaperone, chaperone therapy, high throughput screening, alpha-glucosidase inhibitor, MLSMR, MLSCN, NIH Roadmap, qHTS and NCGC
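Note: 0% = full enzyme reaction and -100% = no-enzyme basal signal; the screen sought inhibitors and activators.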

SMILES | activity change, negative = inhibition
CC(C)(C)C(=O)NC(Sc1ccncn1)C(Cl)(Cl)Cl (stereo unspecified) | inactive: -5.3%
O=P(Nc1nc2ccccc2s1)(c1ccccc1)c1ccccc1 | inactive: -11.2%
C[C@H]1OP(=O)(Oc2ccccc2)[C@H](O)[C@H](O)[C@H]1N=[N+]=[N-] (stereo partly specified) | inactive: 2.22%
O=P(Nc1ccccn1)(c1ccc(Br)cc1)c1ccc(Br)cc1 | inactive: -10.1%
CN(C)C1(CNC(=O)c2ccc(Cl)c(S(N)(=O)=O)c2)CCCCC1 | inactive: -4.77%
O=C(OC1CN2CCC1CC2)c1cccc(Cl)c1 (stereo unspecified) | inactive: -2%
Nc1ccc([As](=O)(O)c2ccc([N+](=O)[O-])cc2)cc1 | inactive: 5.13%
C(Cc1nn[nH]n1)Cc1nn[nH]n1 | inactive: -1.04%
O=[As](O)(c1ccccc1)c1ccc(O)cc1 | inactive: -5.32%
O=[N+]([O-])c1ccc(O)c(/C=N/Nc2ccc([N+](=O)[O-])cc2[N+](=O)[O-])c1 | inactive: 1.77% [at 76.3 µM]
CC(=O)NC(SC(=S)N(C)C)C(Cl)(Cl)Cl (stereo unspecified) | inactive: -1.96%
O=[N+]([O-])c1ncn(CCn2cnc([N+](=O)[O-])n2)n1 | inactive: 1.74%
c1nnnn1CCn1cnnn1 | inactive: -0.0922%
CC(C)C(=O)NC(Sc1ccccc1)C(Cl)(Cl)Cl (stereo unspecified) | inactive: 12.9%
O=P(Nc1nccs1)(c1ccccc1)c1ccccc1 | inactive: 4.4%
CC(C)(C)C(=O)NC(Sc1ccccc1)C(Cl)(Cl)Cl (stereo unspecified) | inactive: -0.74%
O=P1(Nc2nc3ccc(Cl)cc3s2)COc2ccccc2O1 (stereo unspecified) | inactive: -16%
CCOc1ccc(C2=NCC(CBr)S2)cc1 (stereo unspecified) | inactive: 7.61%

SMILES | activity change, negative = inhibition
CC(=O)Nc1ccc([As](=O)(O)O)c(O)c1 | inactive: 6.48%
CC(=O)Nc1ccc(Oc2c([N+](=O)[O-])cc([N+](=O)[O-])cc2[N+](=O)[O-])cc1 | inactive: 1.11%
C[C@@H]1C=CCP(=O)(Oc2ccccc2)O1 (stereo partly specified) | inactive: -0.659%
C[C@H]1OP(=O)(Oc2ccccc2)C[C@@H]2O[C@@H]21 (stereo partly specified) | inactive: 2.57%
CC(=O)c1ccc(N2CC2c2ccncc2)cc1 (stereo unspecified) | inactive: 3.68%
c1ccc(-c2nn[nH]n2)c(-c2nn[nH]n2)c1 | inactive: -11.3%
Cc1ccc(NP(=O)(Oc2cccc(C)c2)Oc2cccc(C)c2)nc1 | inactive: -8.81%
CCOC(=O)NC(Sc1ccccc1)C(Cl)(Cl)Cl (stereo unspecified) | inactive: 2.16%
CCNC(=S)/N=C(\N)N[N+](=O)[O-] | inactive: -8.26%
O=C(NC1CCS(=O)(=O)C1)NP(=S)(Oc1ccccc1)Oc1ccccc1 (stereo unspecified) | inactive: 6.83%
Cc1ccccc1OP(=O)(Nc1ccccn1)Oc1ccccc1C | inactive: -0.0858%
CN(C)C(=O)Oc1noc2ccccc12 | inactive: 6.81%
O=c1c2cc([N+](=O)[O-])ccc2[nH]c2c([N+](=O)[O-])cc([N+](=O)[O-])cc12 | inactive: 18.4%
O=C(OC1CN2CCC1CC2)c1ccccc1 (stereo unspecified) | inactive: 0.595%
CCC(=O)N1C2C3N(C(=O)CC)C1C1N(C(=O)CC)C(C(N1C(=O)CC)N3C(=O)CC)N2C(=O)CC | inactive: 5.98%
COC(=O)c1cc2c(s1)N=C(c1ccccc1)N(C)P2(=O)N1CCOCC1 (stereo unspecified) | inactive: 4.5%
CC(=O)NC(SC(=S)N(CC(C)C)CC(C)C)C(Cl)(Cl)Cl (stereo unspecified) | inactive: 4.9%
Cc1ccc(OP(=O)(Nc2ccccn2)Oc2ccc(C)cc2)cc1 | inactive: -2.36%
